# Source: ChEMBL document CHEMBL1146805, “Carbonic anhydrase inhibitors. Inhibition of cytosolic isozyme XIII with aromatic and heterocyclic sulfonamides: a novel target for the drug design” (Bioorg Med Chem Lett, 2004)
# Protein sequences, listed by entry. Tags and fused reporters are not part of them. Lines headed by an entry give the natural chain unless they say otherwise; changes in a name come on top.
# UniProt Q9D6N1: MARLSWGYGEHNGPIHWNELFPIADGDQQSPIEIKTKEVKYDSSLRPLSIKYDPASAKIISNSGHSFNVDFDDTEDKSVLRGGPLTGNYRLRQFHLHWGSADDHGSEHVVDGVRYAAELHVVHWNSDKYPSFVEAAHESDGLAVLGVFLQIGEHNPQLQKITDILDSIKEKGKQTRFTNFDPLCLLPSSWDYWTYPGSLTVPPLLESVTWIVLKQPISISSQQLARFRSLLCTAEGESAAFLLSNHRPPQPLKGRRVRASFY
# Target: Carbonic anhydrase 13 (Mus musculus, UniProt Q9D6N1)
smiles,measurement,value
CC(=O)/N=c1/sc(S(N)(=O)=O)nn1C [METHAZOLAMIDE],Ki,19 nM
